Laboratory results reported in patent US10208066B2, “Imidazopyridazine compounds and their use” (HUTCHISON MEDIPHARMA LIMITED, priority 2014, dated 2019).

By UniProt entry, the sequences of proteins in these tests, tags left out. Where a name states a change or a piece, a line headed by the entry shows the natural chain unless it says otherwise.
UniProt O00329, whole entry, species assumed: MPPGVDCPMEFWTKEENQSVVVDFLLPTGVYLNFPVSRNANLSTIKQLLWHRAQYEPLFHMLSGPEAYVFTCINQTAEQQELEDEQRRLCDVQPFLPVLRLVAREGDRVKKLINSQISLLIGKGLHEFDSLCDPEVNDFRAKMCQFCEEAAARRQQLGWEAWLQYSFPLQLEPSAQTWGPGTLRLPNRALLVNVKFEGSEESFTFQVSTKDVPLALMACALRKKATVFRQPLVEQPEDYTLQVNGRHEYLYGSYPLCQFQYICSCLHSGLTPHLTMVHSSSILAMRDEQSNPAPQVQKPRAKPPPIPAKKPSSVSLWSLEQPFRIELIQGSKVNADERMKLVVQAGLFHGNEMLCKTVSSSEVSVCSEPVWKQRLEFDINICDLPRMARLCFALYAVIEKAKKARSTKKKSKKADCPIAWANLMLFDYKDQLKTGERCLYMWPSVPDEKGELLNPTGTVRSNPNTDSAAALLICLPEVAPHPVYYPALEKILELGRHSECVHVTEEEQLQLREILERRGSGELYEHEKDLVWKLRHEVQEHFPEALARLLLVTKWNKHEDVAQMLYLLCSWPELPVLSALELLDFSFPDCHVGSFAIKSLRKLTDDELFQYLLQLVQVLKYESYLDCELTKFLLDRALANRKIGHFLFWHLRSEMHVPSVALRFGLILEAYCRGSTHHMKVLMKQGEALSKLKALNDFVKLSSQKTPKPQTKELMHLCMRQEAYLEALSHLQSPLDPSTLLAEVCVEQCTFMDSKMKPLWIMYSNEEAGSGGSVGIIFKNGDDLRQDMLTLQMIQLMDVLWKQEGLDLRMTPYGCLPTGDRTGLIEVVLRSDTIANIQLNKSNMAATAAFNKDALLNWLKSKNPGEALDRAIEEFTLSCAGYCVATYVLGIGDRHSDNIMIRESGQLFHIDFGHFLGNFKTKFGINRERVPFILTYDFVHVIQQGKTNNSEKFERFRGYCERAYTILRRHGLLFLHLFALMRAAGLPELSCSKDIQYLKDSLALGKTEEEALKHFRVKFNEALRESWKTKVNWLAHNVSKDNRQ

Experiments:
[1] = target: PI3K-δ (p110δ/p85α) (Homo sapiens (Human), UniProt O00329); assay: Transcreener KINASE Assay, fluorescent determination of PI3K enzyme activity; format: biochemical;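 further: ADP formed by the kinase detected via far-red competitive fluorescence polarization immunoassay after 80 min room-temperature reaction, inhibition relative to 2% DMSO wells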
[2] = system: AKT phosphorylation (p-AKT Ser473) in Ramos cells; assay: Inhibition of AKT phosphorylation in Ramos cell line (anti-IgM stimulated); format: cell-based; conditions: Homo sapiens, anti-IgM stimulation

`CC(Nc1ncnc(N)c1C#N)c1cc2ncc(Cl)n2nc1-c1ccccc1` (racemic) [Compound 2, 4-amino-6-((1-(3-chloro-6-phenylimidazo[1,2-b]pyridazin-7-yl)ethyl)amino)pyrimidine-5-carbonitrile] gave an IC50 [1] of 1 nM and an IC50 [2] of 1 nM.
